Reference: US6740641B2 (priority 2001, dated 2004)

Chains of the proteins cited; added tags and fusions are not shown.
UniProt P41143, whole entry: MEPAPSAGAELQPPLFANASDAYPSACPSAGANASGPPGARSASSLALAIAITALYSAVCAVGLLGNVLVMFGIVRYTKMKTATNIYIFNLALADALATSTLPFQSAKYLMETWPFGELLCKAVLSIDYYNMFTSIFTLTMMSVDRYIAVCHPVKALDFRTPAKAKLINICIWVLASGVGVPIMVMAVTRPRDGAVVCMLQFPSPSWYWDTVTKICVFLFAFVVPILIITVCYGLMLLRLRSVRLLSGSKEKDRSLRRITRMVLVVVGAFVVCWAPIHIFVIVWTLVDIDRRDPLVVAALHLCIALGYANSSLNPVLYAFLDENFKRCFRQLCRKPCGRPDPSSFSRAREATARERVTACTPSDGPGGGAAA

Biological target: T1, recombinant delta opiod receptor expressed in CHO-K1 cells (Homo sapiens, UniProt P41143)
T1 construct: purchased Receptor Biology Inc., Beltsville, Md; host or cells: CHO-K1
Assay: biochemical
Type: binding

CN1CC[C@]23c4c5ccc(O)c4O[C@H]2[C@@H](O)CC[C@H]3[C@H]1C5 [Dihydromorphine, reference compound]
Ki: 212 nM
